Tests used:
[1] = molecular target: α-amylase (Sus scrofa, UniProt P00690); assay: In vitro alpha-amylase inhibition (starch/DNS method); settings: read-out: Alpha-Amylase IC50 (µM ± SEM)
[2] = molecular target: crude intestinal α-glucosidase; assay: In vitro alpha-glucosidase inhibition (p-nitrophenyl-α-D-glucopyranoside); assay type: biochemical; settings: read-out: Alpha-Glucosidase IC50 (µM ± SEM)

Amino acid sequences for entries named in this document (tags omitted). Residues count along the entry.
UniProt P00690, 16-511 limits assumed: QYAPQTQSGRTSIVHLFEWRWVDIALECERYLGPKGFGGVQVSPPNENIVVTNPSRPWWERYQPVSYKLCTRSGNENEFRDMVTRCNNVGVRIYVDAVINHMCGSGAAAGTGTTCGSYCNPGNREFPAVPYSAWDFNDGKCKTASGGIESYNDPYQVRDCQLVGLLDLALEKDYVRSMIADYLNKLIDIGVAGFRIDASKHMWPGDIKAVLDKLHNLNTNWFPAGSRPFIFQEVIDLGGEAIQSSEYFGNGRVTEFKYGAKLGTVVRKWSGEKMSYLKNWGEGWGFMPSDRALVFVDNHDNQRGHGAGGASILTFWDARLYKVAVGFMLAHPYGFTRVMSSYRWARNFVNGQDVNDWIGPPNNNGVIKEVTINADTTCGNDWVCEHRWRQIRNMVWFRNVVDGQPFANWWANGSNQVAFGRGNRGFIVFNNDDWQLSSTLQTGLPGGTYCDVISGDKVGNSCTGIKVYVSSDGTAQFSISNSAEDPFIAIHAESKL

Work on `O=C1N/C(=N/c2nccs2)S/C1=C\c1cc([N+](=O)[O-])c2cc[nH]c2c1` yielded an IC50 [1] of 5.6 µM and an IC50 [2] of 6.2 µM.

`O=C1N/C(=N/c2nccs2)S/C1=C\c1ccc2cc[nH]c2c1Cl` gave an IC50 [1] of 10.7 µM and an IC50 [2] of 11.5 µM.

Work on `O=C1N/C(=N/c2nccs2)S/C1=C\c1cc2[nH]ccc2cc1[N+](=O)[O-]` yielded an IC50 [1] of 4.7 µM and an IC50 [2] of 5.8 µM.
